Reference: patent publication US11071731B2, “Allosteric modulators of the mu opioid receptor” (Chiromics, LLC, priority 2017, dated 2021)

Sequences of proteins named here, by UniProt entry; tags and fusion partners are left off.
UniProt P35372, whole entry: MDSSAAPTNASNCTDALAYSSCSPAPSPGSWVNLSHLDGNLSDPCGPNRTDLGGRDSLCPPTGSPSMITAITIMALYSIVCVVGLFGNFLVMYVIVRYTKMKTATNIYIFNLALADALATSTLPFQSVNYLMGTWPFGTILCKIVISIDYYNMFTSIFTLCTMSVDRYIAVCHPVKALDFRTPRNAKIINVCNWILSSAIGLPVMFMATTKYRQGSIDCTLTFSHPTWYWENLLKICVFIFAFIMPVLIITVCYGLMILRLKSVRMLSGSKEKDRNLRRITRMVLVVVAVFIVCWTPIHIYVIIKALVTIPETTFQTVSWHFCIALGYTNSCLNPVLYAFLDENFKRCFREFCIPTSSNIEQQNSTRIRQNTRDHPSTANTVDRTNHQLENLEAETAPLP

Legend:
[1] = biological target: T1, mu opioid receptor (MOR) (Homo sapiens, UniProt P35372); test: PathHunter β-arrestin recruitment assay, PAM mode with EC20 endomorphin-1; details: for EC50: read-out: β-arr. EC50, β-arrestin recruitment
[2] = biological target: T1, mu opioid receptor (MOR); test: Hit Hunter cAMP signaling assay (adenylyl cyclase inhibition), PAM mode with EC20 endomorphin-1; assay type: cell-based; details: for EC50: read-out: cAMP EC50, adenylyl cyclase inhibition
[3] = maximal response for β-arrestin recruitment
[4] = maximal response for adenylyl cyclase inhibition

Row | SMILES | β-arr Max. Resp. [1, 3] | EC50 [1] [nM] | cAMP Max. Resp. [2, 4] | EC50 [2] [nM] | β-arr. Max Resp. ([1]; maximal response for β-arrestin recruitment, Table 3) | EC50 ([1]; Table 3) [nM] | cAMP Max Resp. ([2]; maximal response for adenylyl cyclase inhibition, Table 3) | EC50 ([2]; Table 3) [nM]
1 | CCNc1cccc(C2CCCCN2Cc2cc(Cl)ccc2F)n1 (stereo not shown) | D (D represents a maximal response of < 40%) | > 2100 | D (D represents a maximal response of < 40%) | > 2100 | – | – | – | –
2 | Fc1cc(C2CC(F)(F)CN2c2nc(Cl)ncc2F)cc(C(F)(F)F)c1 (stereo not shown) | F (F represents a maximal response of > 60%) | > 2100 | F (F represents a maximal response of > 60%) | < 700 | 305 | 11800 | 66 | 409
3 | Fc1ccc(C2CC(F)(F)CN2c2nc(Cl)ncc2F)cc1Cl (stereo not shown) | F (F represents a maximal response of > 60%) | > 2100 | E (E represents a maximal response of 40-60%) | 700 to 2100 | – | – | – | –
